Test results published in patent US9907800B2, “Kinase inhibitors and method of treating cancer” (University Health Network, priority 2010, dated 2018).

Amino acid sequences for entries named in this document (tags omitted). Residues count along the entry.
UniProt Q96GD4, whole entry: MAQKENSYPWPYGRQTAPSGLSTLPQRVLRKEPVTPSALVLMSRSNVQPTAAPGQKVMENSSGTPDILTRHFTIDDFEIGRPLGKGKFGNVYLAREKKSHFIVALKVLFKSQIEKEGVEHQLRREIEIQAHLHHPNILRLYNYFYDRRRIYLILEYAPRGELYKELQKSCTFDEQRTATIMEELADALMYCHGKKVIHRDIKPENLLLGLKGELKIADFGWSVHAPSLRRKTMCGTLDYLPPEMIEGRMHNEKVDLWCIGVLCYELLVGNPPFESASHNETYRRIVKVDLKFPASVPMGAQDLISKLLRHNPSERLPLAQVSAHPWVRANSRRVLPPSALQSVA
UniProt O00444, 1-391: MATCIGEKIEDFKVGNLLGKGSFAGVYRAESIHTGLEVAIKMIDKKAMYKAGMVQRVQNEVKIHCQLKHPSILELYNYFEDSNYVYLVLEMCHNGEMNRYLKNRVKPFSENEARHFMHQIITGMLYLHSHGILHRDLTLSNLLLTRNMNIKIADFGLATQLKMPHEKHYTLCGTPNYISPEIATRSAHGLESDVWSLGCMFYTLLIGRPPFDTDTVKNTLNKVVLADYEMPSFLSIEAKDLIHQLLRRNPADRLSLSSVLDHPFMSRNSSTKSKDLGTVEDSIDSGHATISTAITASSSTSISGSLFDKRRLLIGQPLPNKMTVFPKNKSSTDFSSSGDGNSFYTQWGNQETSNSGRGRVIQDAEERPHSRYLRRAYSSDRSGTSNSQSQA

How the values were obtained:
Aurora B = Aurora B (Homo sapiens (Human), UniProt Q96GD4); assay: Aurora B inhibition assay (Z-Lyte); assay type: biochemical; details: read-out: Aurora B IC50 Ranges
human PLK4 = human PLK4 (Homo sapiens (Human), UniProt O00444); assay: PLK4 inhibition assay (indirect ELISA); assay type: biochemical

Work on `COc1ccc2c(c1)[C@]1(C[C@H]1c1ccc3c(-c4ccc(C5CCNCC5)cc4)n[nH]c3c1)C(=O)N2` (relative stereo) [Example A122, (1R*,2S*)-5′-methoxy-2-(3-(4-(piperidin-4-yl)phenyl)-1H-indazol-6-yl)spiro[cyclopropane-1,3′-indolin]-2′-one 2,2,2-trifluoroacetate] yielded an IC50 (Aurora B) of under 100 nM and an IC50 (human PLK4) of under 100 nM.

Compound `COc1ccc2c(c1)[C@]1(C[C@H]1c1ccc3c(-c4ccc(N5CCN(C(C)C)CC5)cc4)n[nH]c3c1)C(=O)N2` [Example A97, (1R,2S)-2-(3-(4-(4-isopropylpiperazin-1-yl)phenyl)-1H-indazol-6-yl)-5′-methoxyspiro[cyclopropane-1,3′-indolin]-2′-one 2,2,2-trifluoroacetate] has an IC50 (human PLK4; read-out: PLK4 IC50 Ranges) of under 100 nM.

Where two headings read alike, the source gives them in different places.
